# AlphaSeq binding of Ab-14 light chain variants to a spike HR2 peptide

Target peptide (SARS-CoV-2 spike, HR2 region): PDVDLGDISGINAS

Ab-14 is the parent antibody, in scFv form: VH, then three GGGGS repeats, then VL. The heavy chain is unchanged in all variants.
VH: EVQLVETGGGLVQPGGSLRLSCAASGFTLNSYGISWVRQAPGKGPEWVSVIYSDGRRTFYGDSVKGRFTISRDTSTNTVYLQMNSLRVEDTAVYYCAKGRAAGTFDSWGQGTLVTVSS
VL: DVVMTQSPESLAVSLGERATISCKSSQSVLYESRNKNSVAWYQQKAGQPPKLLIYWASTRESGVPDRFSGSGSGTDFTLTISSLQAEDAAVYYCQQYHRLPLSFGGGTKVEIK

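Phage display of a naive human antibody library on the peptide gave the parent. Designed CDR sequences, proposed from the first random library and measured here. Group labels follow the data file (En: ensemble of fine-tuned language models; GP: Gaussian process model; HC: hill climbing; Gen: genetic algorithm; Gibbs: Gibbs sampling; a sequence that several methods proposed may carry one label only). AlphaSeq pools MATa yeast showing the antibodies with MATalpha yeast showing the peptide. Binding brings cells together so that they mate, and sequencing counts the barcode pairs among the diploids. Each replicate has its own calibration line, from reference interactions of the BCL2 family. There are six technical replicates.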

Variants are written as CDR1, CDR2 and CDR3 of the light chain (limits as in the source). Parent: KSSQSVLYESRNKNSVA, WASTRES, QQYHRLPLS. Variants here have more than six changes. Values are apparent Kd, the geometric mean of the replicates that gave a signal; lower means stronger binding. A pair that was not seen in any replicate is written "nd"; this usually means weak binding, but a binder can also be missed.

Variant IVSQLMMWGMHAKNSIA | EAVTRLN | QQYDRLPLF [En_Gen] showed 56 nM (1 of 6 replicates; controls 0 of 18).
Variant TLVQSVMSGGRTKNSVA | NAETRYD | QHYHRLPLS [En_HC] showed 5.2 nM (6 of 6 replicates; controls 0 of 18).
Variant KLYERGEISSKVDRSIA | EMSTRQE | QSYQRLPLS [En_Gibbs] showed 24 nM (6 of 6 replicates; controls 0 of 18).
Variant NLVERAQMQDSGRQAIA | NAHARCT | QQYFHLPLT [En_Gibbs] showed 21 nM (6 of 6 replicates; controls 1 of 18).
Variant TLHANIEYGGGMWSSIA | DNVQRAN | QQYQRLPLG [En_Gibbs] showed 15 nM (6 of 6 replicates; controls 1 of 18).
Variant MISDLTMNGSRNKNSVA | DLSTRGS | QQYHRLPLS [En_HC] showed 1.3 nM (6 of 6 replicates; controls 1 of 18).
Variant TISQMSTLFSQSINNVA | EVSTRIE | QQYDRLPLV [En_Gen] showed 4.6 nM (6 of 6 replicates; controls 0 of 18).
Variant MISQILNMGQFAINSVA | QASIRNE | QQYDRLPLT [En_Gen] showed 43 nM (4 of 6 replicates; controls 0 of 18).
Variant KISQMIRVGSTHKNSIA | EEQTRAK | QQYHRLPLA [En_Gen] showed 60 nM (6 of 6 replicates; controls 0 of 18).
Variant KIIQSVAMSSRNKDSIA | DNSTREY | QQYHRLPLS [En_HC] showed 260 nM (4 of 6 replicates; controls 0 of 18).
Variant KLDQSELYESRNKQSVA | NASQRCS | QQYHRLPLS [GP_Gibbs] showed 1.3 nM (6 of 6 replicates; controls 2 of 18).
Variant KFQIGMNQGSSMEHNIA | EGTYAEE | QQYARLPLQ [En_Gibbs] showed 3.8 nM (6 of 6 replicates; controls 3 of 18).
Variant MVSQLMVWGMHAKNSIA | EAEHRIN | QQYDRLPLF [En_Gen] showed 98 nM (3 of 6 replicates; controls 0 of 18).
Variant KLYQSTAMTSRMRNNVA | DLNERER | QQYFRLPLS [En_HC] showed 1.9 nM (6 of 6 replicates; controls 0 of 18).
Variant MISNVMNTLTRYGNNVA | DLQNRED | QQYFRLPLS [En_Gen] showed 4.8 nM (6 of 6 replicates; controls 1 of 18).
Variant WLSTSVMLESRNVNSVA | SASTREE | QQYHRLPLS [GP_Gibbs] showed 660 pM (6 of 6 replicates; controls 0 of 18).
Variant KLSQVTNSEHKVKNSIA | EMVMREK | QQYDRLPLS [En_HC] showed 3.1 nM (6 of 6 replicates; controls 0 of 18).
Variant KVDQLVDMESRNKNAVA | EASTRES | QQYHRLPLS [GP_Gibbs] showed 710 pM (6 of 6 replicates; controls 2 of 18).
Variant NMFGGLNFNDINHQAIA | SVDEREK | QQYHRLPLQ [En_Gibbs] showed 28 nM (6 of 6 replicates; controls 1 of 18).
Variant HMSMLTLQGLRHRNSVA | QMTTRVN | QQYDRLPLT [En_Gen] showed nd (0 of 6 replicates; controls 0 of 18).
Variant MFDQQTMNENDKNNSVA | EVNHLVN | QQYAQLPLI [En_Gibbs] showed 5.8 nM (6 of 6 replicates; controls 2 of 18).
Variant RLKCTSEEHGRQNNAIA | AAAKLVT | QQYARLPLT [En_Gibbs] showed 9.5 nM (6 of 6 replicates; controls 0 of 18).
Variant HITYSMQHLSKNKNSVA | NQQTRES | QQYHRLPLS [En_HC] showed 5.1 nM (6 of 6 replicates; controls 0 of 18).
Variant AFSESANYGQRDSNAIA | GADVVEK | QQYWRLPLT [En_Gibbs] showed 1.3 nM (6 of 6 replicates; controls 2 of 18).
Variant KVSLSVLLWSRNVNAVA | EASTRES | QQYHRLPLS [GP_Gibbs] showed 1.3 nM (6 of 6 replicates; controls 1 of 18).
Variant QLEWDQLWGANYDYSVA | ATDVISP | QQYHRLPLI [En_Gibbs] showed 3.2 nM (6 of 6 replicates; controls 1 of 18).
Variant KLYTSVMLESRNVNSVA | SASQREE | QQYHRLPLS [GP_Gibbs] showed 960 pM (6 of 6 replicates; controls 1 of 18).
Variant KVMQSMWYESRWKNSVA | NASQRES | QQYHRLPLS [GP_Gibbs] showed 3.8 nM (6 of 6 replicates; controls 0 of 18).
Variant RMEWHMSGATEAKNSMA | GVEHRAN | QQYDRLPLS [En_Gibbs] showed 1.5 nM (6 of 6 replicates; controls 1 of 18).
Variant HITMGMYVMGRHHSSIA | QAEERAK | QQYDRLPLI [En_Gen] showed 26 nM (6 of 6 replicates; controls 0 of 18).
Variant KLTMITGLEKVHGNNVA | EMETRTK | QQYNRLPLS [En_Gen] showed 1.7 nM (6 of 6 replicates; controls 0 of 18).
Variant HMSQVTMYGYWVKNSVA | QTSTREE | QQYDRLPLS [En_HC] showed 16 nM (6 of 6 replicates; controls 2 of 18).
Variant MISQLYNMGTFTINSVA | QASQRNA | QQYDRLPLM [En_Gen] showed 75 nM (3 of 6 replicates; controls 0 of 18).
Variant TISGTLMFGMRNRSNVA | EVSERLN | QQYDRLPLI [En_Gen] showed 110 nM (6 of 6 replicates; controls 0 of 18).
Variant ALSQSQGGESRNPNSVA | HASTRES | QQYHRLPLS [GP_Gibbs] showed 350 pM (6 of 6 replicates; controls 1 of 18).
Variant KLLQTVMNETRNKNNVA | HMTTRED | QQYFRLPLS [En_HC] showed 1.0 nM (6 of 6 replicates; controls 1 of 18).
Variant MISQLQNMGQFAINSVA | QASERSE | QQYDRLPLI [En_Gen] showed 9.3 nM (6 of 6 replicates; controls 1 of 18).

The first 2 entries again:

| CDR-L1 | CDR-L2 | CDR-L3 | group | Kd | replicates with signal | empty controls |
|---|---|---|---|---|---|---|
| IVSQLMMWGMHAKNSIA | EAVTRLN | QQYDRLPLF | En_Gen | 56 nM | 1 of 6 | 0 of 18 |
| TLVQSVMSGGRTKNSVA | NAETRYD | QHYHRLPLS | En_HC | 5.2 nM | 6 of 6 | 0 of 18 |

Of ten entries with the parent sequence, four were seen in most replicates (averages 2.2 nM to 240 nM), three in one and three in none, so single entries are noisy. In the paper, a design with two or fewer of six values counts as a poor binder. Values of this round are not directly comparable with the first-round values of the same sequences. Background: pairings of all light chain designs with three empty control strains gave a value in 4% of cases (median 430 nM, 5th percentile 38 nM). Values in that range, when seen in few replicates, are hard to tell from nonspecific mating. Also given: how often the same scFv was detected with the empty control strains.

From the AlphaSeq antibody data of Li et al. 2023 (doi:10.1038/s41467-023-39022-2), copy in the FLAb collection.